# Patent US8962608B2, “Cycloalkylnitrile pyrazole carboxamides as janus kinase inhibitors” (Merck Sharp & Dohme Corp., priority 2011, dated 2015)
# Protein sequences, listed by entry. Tags and fused reporters are not part of them. Residues count along the entry.
# UniProt P23458, 875-1153: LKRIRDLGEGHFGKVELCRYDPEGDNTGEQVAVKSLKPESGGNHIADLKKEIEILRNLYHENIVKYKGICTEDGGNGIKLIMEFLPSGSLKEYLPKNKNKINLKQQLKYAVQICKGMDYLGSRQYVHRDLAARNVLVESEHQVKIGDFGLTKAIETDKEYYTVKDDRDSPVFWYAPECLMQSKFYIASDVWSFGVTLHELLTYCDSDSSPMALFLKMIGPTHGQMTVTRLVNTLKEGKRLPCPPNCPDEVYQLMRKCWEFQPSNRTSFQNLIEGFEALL
# UniProt O60674, 849-1124: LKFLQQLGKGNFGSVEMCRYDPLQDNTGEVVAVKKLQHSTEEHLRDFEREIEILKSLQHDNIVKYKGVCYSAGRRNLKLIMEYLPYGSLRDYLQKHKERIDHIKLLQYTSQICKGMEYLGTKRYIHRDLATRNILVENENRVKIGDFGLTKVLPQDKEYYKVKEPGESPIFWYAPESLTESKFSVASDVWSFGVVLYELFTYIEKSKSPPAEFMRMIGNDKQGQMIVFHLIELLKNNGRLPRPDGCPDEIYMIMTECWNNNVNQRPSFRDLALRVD
# Counter-ions that a name gives are not always drawn.
# Target: T1, JAK1 (recombinant purified GST-tagged catalytic domain) (Homo sapiens (Human), UniProt P23458)
# Experiment: not given
row,SMILES,IC50 [nM]
1,"N#C[C@H]1C[C@H](O)CC[C@@H]1n1cc(C(N)=O)c(Nc2ccc(S(=O)(=O)C(F)(F)F)cc2)n1 (mixture of isomers) [Example 13-1, 1-[(1S,2S,4R and 1R,2R,4S)-2-cyano-4-hydroxycyclohexyl]-3-({4-[(trifluoromethyl)sulfonyl]phenyl}amino)-1H-pyrazole-4-carboxamide]",0.34
2,"CS(=O)(=O)c1ccc(Nc2nn(C3CCCCC3C#N)cc2C(N)=O)cc1 (centres unmarked) [Example 2-15, 1-(2-cyanocyclohexyl)-3-{[4-(methylsulfonyl)phenyl]amino}-1H-pyrazole-4-carboxamide]",0.6
3,"CS(=O)(=O)c1ccc(Nc2nn([C@H]3CCCC[C@H]3C#N)cc2C(N)=O)cc1 (single isomer, unassigned) [Example 42-3, 1-[(1S,2R or 1R,2S)-2-cyanocyclohexyl]-3-{[4-(methylsulfonyl)phenyl]amino}-1H-pyrazole-4-carboxamide]",32
4,"CS(=O)(=O)c1ccc(Nc2nn([C@H]3CCCC[C@@H]3C#N)cc2C(N)=O)cc1 (single isomer, unassigned) [Example 42-1, 1-[(1S,2S or 1R,2R)-2-cyanocyclohexyl]-3-{[4-(methylsulfonyl)phenyl]amino}-1H-pyrazole-4-carboxamide]",0.25
5,"CS(=O)(=O)c1ccc(Nc2nn([C@H]3CCCC[C@H]3C#N)cc2C(N)=O)cc1 (single isomer, unassigned) [Example 42-4, 1-[(1S,2R or 1R,2S)-2-cyanocyclohexyl]-3-{[4-(methylsulfonyl)phenyl]amino}-1H-pyrazole-4-carboxamide]",2
6,"N#C[C@H]1C[C@@H](O)CC[C@@H]1n1cc(C(N)=O)c(Nc2ccc(S(=O)(=O)C(F)(F)F)cc2)n1 (mixture of isomers) [Example 13-2, 1-[(1S,2S,4S and 1R,2R,4R)-2-cyano-4-hydroxycyclohexyl]-3-({4-[(trifluoromethyl)sulfonyl]phenyl}amino)-1H-pyrazole-4-carboxamide]",0.62
7,"CN(C)[C@@H]1CC[C@@H](n2cc(C(N)=O)c(Nc3ccc(OC(F)F)nc3)n2)[C@H](C#N)C1 [Example 28-31, 1-[(1R,2R,4R pr 1S,2S,4S)-2-cyano-4-(dimethylamino)cyclohexyl]-3-{[6-(difluoromethoxy)pyridin-3-yl]amino}-1H-pyrazole-4-carboxamide]",105
8,"CS(=O)(=O)c1ccc(Nc2nn([C@H]3CCCC[C@@H]3C#N)cc2C(N)=O)cc1 (single isomer, unassigned) [Example 42-2, 1-[(1S,2S or 1R,2R)-2-cyanocyclohexyl]-3-{[4-(methylsulfonyl)phenyl]amino}-1H-pyrazole-4-carboxamide]",3

# Target: T2, JAK2 (recombinant purified GST-tagged catalytic domain) (Homo sapiens (Human), UniProt O60674)
# Experiment: not given
row,SMILES,IC50 [nM]
1,"N#C[C@H]1C[C@H](O)CC[C@@H]1n1cc(C(N)=O)c(Nc2ccc(S(=O)(=O)C(F)(F)F)cc2)n1 (mixture of isomers) [Example 13-1, 1-[(1S,2S,4R and 1R,2R,4S)-2-cyano-4-hydroxycyclohexyl]-3-({4-[(trifluoromethyl)sulfonyl]phenyl}amino)-1H-pyrazole-4-carboxamide]",5
2,"CC1(C)CN([C@H]2CC[C@H](n3cc(C(N)=O)c(Nc4ccnc(F)c4)n3)[C@@H](C#N)C2)C1 (single isomer, unassigned) [Example 28-134, 1-[(1S,2S,4S or 1R,2R,4R )-2-cyano-4-(3,3-dimethylazetidin-1-yl)cyclohexyl]-3-[(2-fluoropyridin-4-yl)amino]-1H-pyrazole-4-carboxamide]",50
3,"N#C[C@H]1CCCC[C@@H]1n1cc(C(N)=O)c(Nc2ccc(S(=O)(=O)C(F)(F)F)cc2)n1 (single isomer, unassigned) [Example 43-2, 1-[(1S,2S or 1R,2R)-2-cyanocyclohexyl]-3-({4-[(trifluoromethyl)sulfonyl]phenyl}amino)-1H-pyrazole-4-carboxamide]",9
4,"N#C[C@H]1CCCC[C@@H]1n1cc(C(N)=O)c(Nc2ccc(S(=O)(=O)C(F)(F)F)cc2)n1 (single isomer, unassigned) [Example 43-1, 1-[(1S,2S or 1R,2R)-2-cyanocyclohexyl]-3-({4-[(trifluoromethyl)sulfonyl]phenyl}amino)-1H-pyrazole-4-carboxamide]",119
5,"CS(=O)(=O)c1ccc(Nc2nn([C@H]3CCCC[C@@H]3C#N)cc2C(N)=O)cc1 (single isomer, unassigned) [Example 42-1, 1-[(1S,2S or 1R,2R)-2-cyanocyclohexyl]-3-{[4-(methylsulfonyl)phenyl]amino}-1H-pyrazole-4-carboxamide]",3
6,"N#C[C@H]1C[C@@H](N2CC3(COC3)C2)CC[C@@H]1n1cc(C(N)=O)c(Nc2ccc(C(F)(F)F)cc2)n1 (single isomer, unassigned) [Example 28-120, 1-[(1S,2S,4S or 1R,2R,4R )-2-cyano-4-(2-oxa-6-azaspiro[3.3]hept-6-yl)cyclohexyl]-3-{[4-(trifluoromethyl)phenyl]amino}-1H-pyrazole-4-carboxamide]",20
7,"CN(C)[C@H]1CC[C@H](n2cc(C(N)=O)c(Nc3ccc(S(=O)(=O)C(F)(F)F)cc3)n2)[C@@H](C#N)C1 (mixture of isomers) [Example 27-1, 1-[(1S,3S,4S and 1R,3R,4R)-4-[4-carbamoyl-3-({4-[(trifluoromethyl)sulfonyl]phenyl}amino)-1H-pyrazol-1-yl]-3-cyano-N,N-dimethylcyclohexanaminium trifluoroacetate]",5
8,"CN(C)[C@@H]1CC[C@H](n2cc(C(N)=O)c(Nc3ccc(S(=O)(=O)C(F)(F)F)cc3)n2)[C@@H](C#N)C1 (mixture of isomers) [Example 27-2, 1-[(1R,3S,4S and 1S,3R,4R)-4-[4-carbamoyl-3-({4-[(trifluoromethyl)sulfonyl]phenyl}amino)-1H-pyrazol-1-yl]-3-cyano-N,N-dimethylcyclohexanaminium trifluoroacetate]",12
9,"N#C[C@H]1C[C@@H](O)CC[C@@H]1n1cc(C(N)=O)c(Nc2ccc(S(=O)(=O)C(F)(F)F)cc2)n1 (mixture of isomers) [Example 13-2, 1-[(1S,2S,4S and 1R,2R,4R)-2-cyano-4-hydroxycyclohexyl]-3-({4-[(trifluoromethyl)sulfonyl]phenyl}amino)-1H-pyrazole-4-carboxamide]",9
10,"CC1(N[C@H]2CCC(n3cc(C(N)=O)c(Nc4ccc(Cl)cc4)n3)[C@@H](C#N)C2)CC1 (single isomer, unassigned) [Example 28-205, 3-[(4-chlorophenyl)amino]-1-{(1S,2S,4S or 1R,2R,4R,)-2-cyano-4-[(1-methylcyclopropyl)amino]cyclo-hexyl}-1H-pyrazole-4-carboxamide]",21
11,"CN(C)[C@@H]1CC[C@@H](n2cc(C(N)=O)c(Nc3ccc(OC(F)F)nc3)n2)[C@H](C#N)C1 [Example 28-31, 1-[(1R,2R,4R pr 1S,2S,4S)-2-cyano-4-(dimethylamino)cyclohexyl]-3-{[6-(difluoromethoxy)pyridin-3-yl]amino}-1H-pyrazole-4-carboxamide]",1100

# Target: T1, JAK1 (recombinant purified GST-tagged catalytic domain)
# Experiment: biochemical
row,SMILES,IC50 [nM]
1,"CC(C)(c1ccc(Nc2nn([C@H]3CC[C@](C)(O)C[C@@H]3C#N)cc2C(N)=O)cc1)C(O)C(F)(F)F (single isomer, unassigned) [Example 32-4, 1-[(1S,2S,4S or 1R,2R,4R)-2-cyano-4-hydroxy-4-methylcyclohexyl]-3-{[4-(3,3,3-trifluoro-(2R or 2S)-hydroxy-1,1-dimethylpropyl)phenyl]amino}-1H-pyrazole-4-carboxamide]",0.35
2,"N#C[C@H]1C[C@@H](O)CC[C@@H]1n1cc(C(N)=O)c(Nc2ccc(C3CC3)cc2)n1 (single isomer, unassigned) [Example 33-18, 1-[(1S,2S,4S or 1R,2R,4R)-2-cyano-4-hydroxycyclohexyl]-3-[(4-cyclopropylphenyl)amino]-1H-pyrazole-4-carboxamide]",3
3,"CC(C)(c1ccc(Nc2nn([C@H]3CC[C@@](C)(O)C[C@@H]3C#N)cc2C(N)=O)cc1)C(O)C(F)(F)F (single isomer, unassigned) [Example 32-2, 1-[(1S,2S,4R or 1R,2R,4S)-2-cyano-4-hydroxy-4-methylcyclohexyl]-3-{[4-(3,3,3-trifluoro-(2R or 2S)-hydroxy-1,1-dimethylpropyl)phenyl]amino}-1H-pyrazole-4-carboxamide]",1
4,"C[C@@H](N[C@H]1CC[C@H](n2cc(C(N)=O)c(Nc3ccc(S(=O)(=O)C(F)(F)F)cc3)n2)[C@@H](C#N)C1)C1CC1 (single isomer, unassigned) [Example 28-182, 1-[(1S,2S,4S or 1R,2R,4R)-2-cyano-4-{[(1R)-1-cyclopropylethyl]amino}cyclo-hexyl]-3-({4-[(trifluoromethyl)sulfonyl]phen-yl}amino)-1H-pyrazole-4-carboxamide]",0.15
5,"CC(C)(c1ccc(Nc2nn([C@H]3CC[C@](C)(O)C[C@@H]3C#N)cc2C(N)=O)cc1)C(O)C(F)(F)F (single isomer, unassigned) [Example 32-3, 1-[(1S,2S,4S or 1R,2R,4R)-2-cyano-4-hydroxy-4-methylcyclohexyl]-3-{[4-(3,3,3-trifluoro-(2R or 2S)-hydroxy-1,1-dimethylpropyl)phenyl]amino}-1H-pyrazole-4-carboxamide]",0.7
6,"N#C[C@H]1CCCC[C@@H]1n1cc(C(N)=O)c(Nc2ccccc2)n1 (racemic) [Example 2-1, 1-((1S,2S and 1R,2R)-2-cyanocyclohexyl)-3-(phenylamino)-1H-pyrazole-4-carboxamide]",3

# Target: T2, JAK2 (recombinant purified GST-tagged catalytic domain)
# Experiment: biochemical
row,SMILES,IC50 [nM]
1,"CN(C)[C@H]1CC[C@@H](n2cc(C(N)=O)c(Nc3ccc(OC(F)F)nc3)n2)[C@H](C#N)C1 (single isomer, unassigned) [Example 28-12, 1-[(1R,2R,4S or 1S,2S,4R)-2-cyano-4-(dimethylamino)cyclohexyl]-3-{[6-(difluoromethoxy)pyridin-3-yl]amino}-1H-pyrazole-4-carboxamide]",> 1500
2,"N#C[C@H]1C[C@@H](C(=O)N[C@H](C2CC2)C(F)(F)F)CC[C@@H]1n1cc(C(N)=O)c(Nc2ccc(Cl)cc2)n1 (single isomer, unassigned) [Example 35-14, 3-[(4-chlorophenyl)amino]-1-[(1S,2S,4S or 1R,2R,4R)-2-cyano-4-{[(1R)-1-cyclopropyl-2,2,2-trifluoroethyl]carbamoyl}cyclohexyl]-1H-pyrazole-4-carboxamide]",> 500
3,"N#C[C@H]1C[C@@H](C(=O)N[C@@H](C2CC2)C(F)(F)F)CC[C@@H]1n1cc(C(N)=O)c(Nc2ccc(Cl)cc2)n1 (single isomer, unassigned) [Example 35-24, 3-[(4-chlorophenyl)amino]-1-[(1S,2S,4S or 1R,2R,4R)-2-cyano-4-{[(1S)-1-cyclopropyl-2,2,2-trifluoroethyl]carbamoyl}cyclohexyl]-1H-pyrazole-4-carboxamide]",> 500
4,"N#C[C@H]1C[C@@H](C(=O)N2CC(F)(F)C2)CC[C@@H]1n1cc(C(N)=O)c(Nc2ccc(Cl)cc2)n1 (single isomer, unassigned) [Example 35-6, 3-[(4-chlorophenyl)amino]-1-{(1S,2S,4S or 1R,2R,4R)-2-cyano-4-[(3,3-difluoroazetidin-1-yl)carbonyl]cyclohexyl}-1H-pyrazole-4-carboxamide]",> 500
